This is an account of results in ChEMBL document CHEMBL3727366, “Heterocyclic compounds for the treatment of stress-related conditions” (2013).

Each structure is given as a SMILES string.

The target of assay [1] is T1, Prolactin-releasing peptide receptor (Homo sapiens, UniProt P49683).
T1 sequence (P49683 whole entry): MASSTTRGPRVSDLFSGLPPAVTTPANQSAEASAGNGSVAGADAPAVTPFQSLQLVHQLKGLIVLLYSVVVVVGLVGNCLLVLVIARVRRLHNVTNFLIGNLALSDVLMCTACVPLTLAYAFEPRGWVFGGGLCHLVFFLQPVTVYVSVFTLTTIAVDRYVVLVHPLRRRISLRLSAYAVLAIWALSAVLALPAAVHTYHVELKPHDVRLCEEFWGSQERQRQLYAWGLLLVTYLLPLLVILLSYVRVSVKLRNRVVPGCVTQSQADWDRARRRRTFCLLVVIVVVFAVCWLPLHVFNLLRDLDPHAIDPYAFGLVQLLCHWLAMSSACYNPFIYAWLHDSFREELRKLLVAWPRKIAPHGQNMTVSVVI
As to the kind of experiment: Displacement of [3H]-PrRP from human GPR10 receptor expressed in HEK293 cell membranes incubated for 90 mins by liquid scintillation counting method. (In general: Displacement assays read how much labelled ligand stays bound in the presence of the test substance.)

The target of assay [2] is T1, Prolactin-releasing peptide receptor. Put plainly: Antagonist activity against human GPR10 receptor expressed in HEK293 cells assessed as inhibition of PrRP-induced intracellular calcium mobilization pre-incubated for 15 mins before PrRP addition by Fluo-8 dye based fluorescence imaging plate reader method. In kind it is functional, cell-based. On the technique in general: Calcium assays in cells follow changes in intracellular calcium, usually with a dye or a luminescent sensor.

As usually defined, the Ki is a dissociation constant, usually derived from enzyme kinetics or from competition with a known ligand. A higher Ki goes with lower affinity. With `COc1cc(Cl)ccc1C(=O)N1CCc2nc(N[C@@H](C)c3ccc(C(F)(F)F)cc3)n(OC)c(=O)c2C1`, the Ki in assay [1] worked out at 18 nM.

The molecule `COn1c(N[C@@H](C)c2ccc(C(F)(F)F)cc2)nc2c(c1=O)CN(C(=O)c1ccc3c(c1)CCC(=O)N3C)CC2` registered a Ki in assay [1] of 16 nM.

The IC50 is the concentration needed to halve the response being measured. In the case of `COn1c(N[C@@H](C)c2ccc(C(F)(F)F)cc2)nc2c(c1=O)CN(C(=O)c1cc3cc(Cl)ccc3o1)CC2`, the IC50 in assay [2] was 824 nM. For the same molecule, the Ki in assay [1] worked out at 12 nM.

`COn1c(N[C@@H](C)c2ccc(C(F)(F)F)cc2)nc2c(c1=O)CN(C(=O)c1cnc3ccccc3c1)CC2`: in assay [2], the concentration for half-maximal inhibition (IC50) is 286 nM. This molecule also had a Ki in assay [1] of 8 nM.

Take `COn1c(N[C@@H](C)c2ccc(C(F)(F)F)cc2)nc2c(c1=O)CN(C(=O)c1ccc(C#N)cc1)CC2`: the IC50 in assay [2] came to 140 nM. In addition, in assay [1], the Ki was 2 nM.

`COn1c(N[C@@H](C)c2ccc(C(F)(F)F)cc2)nc2c(c1=O)CN(C(=O)c1ccc(Cl)c(C)c1)CC2`: the IC50 in assay [2] was determined as 2220 nM. For the same molecule, the Ki in assay [1] worked out at 20 nM.

`CCOc1ccc(C(=O)N2CCc3nc(N[C@@H](C)c4ccc(C(F)(F)F)cc4)n(OC)c(=O)c3C2)cc1`: the IC50 in assay [2] stood at 1280 nM. For the same molecule, the Ki in assay [1] came out at 9 nM.
